# Antibody variant affinities, Ab-14 heavy chain, assay B

Source: Li et al. 2023 (doi:10.1038/s41467-023-39022-2), MIT Lincoln Laboratory and A-Alpha Bio; data file from the FLAb repository.

Target: peptide PDVDLGDISGINAS, taken from heptad repeat 2 (HR2) of SARS-CoV-2 spike.

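The starting antibody came from a phage panning campaign against this peptide. This is the validation round: designs drawn from the data on random variants, tested in the same kind of assay. Several design methods are mixed in this list. The scFvs were displayed on barcoded MATa yeast, the peptide on MATalpha yeast. Binding brings cells together so that they mate, and sequencing counts the barcode pairs among the diploids. Read counts were normalised to the haploid input and turned into Kd by a linear fit to BCL2-family pairs of known affinity, for each replicate. Mating was done six times.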

Ab-14 is the parent antibody, in scFv form: VH, then three GGGGS repeats, then VL. The light chain is unchanged in all variants.
VH: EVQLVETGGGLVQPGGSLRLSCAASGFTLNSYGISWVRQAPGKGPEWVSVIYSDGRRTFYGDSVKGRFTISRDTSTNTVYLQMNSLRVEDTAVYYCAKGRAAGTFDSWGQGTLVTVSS
VL: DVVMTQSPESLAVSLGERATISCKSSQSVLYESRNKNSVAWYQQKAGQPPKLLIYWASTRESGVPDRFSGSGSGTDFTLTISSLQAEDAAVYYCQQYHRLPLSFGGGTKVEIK

The parent's heavy chain CDRs are GFTLNSYGIS, VIYSDGRRTFYGDSVK, GRAAGTFDS; each variant's own CDRs replace them letter for letter. Each Kd is an estimate from the mating assay, the geometric mean of the replicates in which the pair was seen; lower is stronger. A pair that was not seen in any replicate is written "not detected"; this usually means weak binding, but a binder can also be missed. Of ten entries with the parent sequence, four were seen in most replicates (averages 2.2 nM to 240 nM), three in one and three in none, so single entries are noisy.

{"CDR-H1": "GFTLNSYGIS", "CDR-H2": "VIYSDGRRTFYGDKFK", "CDR-H3": "GRATGTFDS", "Kd (apparent)": "not detected", "seen in": "0/6", "empty controls": "0/18"}
{"CDR-H1": "GFDLNEYGIS", "CDR-H2": "VIYADGMRTVYADSVK", "CDR-H3": "GEVAGTFDQ", "Kd (apparent)": "230 pM", "seen in": "6/6", "empty controls": "1/18"}
{"CDR-H1": "GFNLNSYGIS", "CDR-H2": "VIYSDGRRTFYVDSVK", "CDR-H3": "GRQAGTFDS", "Kd (apparent)": "38 nM", "seen in": "6/6", "empty controls": "0/18"}
{"CDR-H1": "GFDLDEYGIS", "CDR-H2": "VIYADGQRTAYADSVK", "CDR-H3": "GQTAGTFDV", "Kd (apparent)": "940 pM", "seen in": "6/6", "empty controls": "0/18"}
{"CDR-H1": "GFTLNSYGSS", "CDR-H2": "VIYSDGRRTFYGDSVK", "CDR-H3": "GRHAGTFFS", "Kd (apparent)": "not detected", "seen in": "0/6", "empty controls": "0/18"}
{"CDR-H1": "GFSLDEMGIS", "CDR-H2": "VIYADGQRTAYQDNVK", "CDR-H3": "GQNGVVVFV", "Kd (apparent)": "not detected", "seen in": "0/6", "empty controls": "0/18"}
{"CDR-H1": "GFSLGEYGIS", "CDR-H2": "VIYADGVRQSYADKVK", "CDR-H3": "GANGAFSLV", "Kd (apparent)": "not detected", "seen in": "0/6", "empty controls": "1/18"}
{"CDR-H1": "GFTLNSYGIS", "CDR-H2": "VIYSDGKRTFYSDSVK", "CDR-H3": "GRAVGTFDS", "Kd (apparent)": "7.8 nM", "seen in": "5/6", "empty controls": "0/18"}
{"CDR-H1": "GFNLNSYGIS", "CDR-H2": "VIYSDGRRTFYGDSVK", "CDR-H3": "GRAQGTFDS", "Kd (apparent)": "not detected", "seen in": "0/6", "empty controls": "1/18"}
{"CDR-H1": "GFNLDEYGVS", "CDR-H2": "VIYADGMRSMYADSVK", "CDR-H3": "GGISGWFFI", "Kd (apparent)": "not detected", "seen in": "0/6", "empty controls": "0/18"}
{"CDR-H1": "GFHLNSYGIS", "CDR-H2": "VIYSDGRRTFYADSVK", "CDR-H3": "GQTAGTFDD", "Kd (apparent)": "2.5 nM", "seen in": "6/6", "empty controls": "0/18"}
{"CDR-H1": "GFQLNEYGIS", "CDR-H2": "VIYSDGRRTFYGDSVK", "CDR-H3": "GKAAGTFDQ", "Kd (apparent)": "11 nM", "seen in": "6/6", "empty controls": "0/18"}
{"CDR-H1": "GFTLNSYGIS", "CDR-H2": "VIYADGRRTFYGLSVK", "CDR-H3": "GRAAGPNKS", "Kd (apparent)": "not detected", "seen in": "0/6", "empty controls": "0/18"}
{"CDR-H1": "GQDLNEYGIS", "CDR-H2": "VIYADGLRTAYTNNVK", "CDR-H3": "GNQSGFDEG", "Kd (apparent)": "570 pM", "seen in": "6/6", "empty controls": "0/18"}
{"CDR-H1": "GFDLNEYGIS", "CDR-H2": "VIYADGRRTFYADSVK", "CDR-H3": "GNTAGTFDE", "Kd (apparent)": "1.2 nM", "seen in": "6/6", "empty controls": "0/18"}
{"CDR-H1": "GFDLNEYGIS", "CDR-H2": "VIYADGKRTFYTDSVK", "CDR-H3": "GEVAGTFDS", "Kd (apparent)": "500 pM", "seen in": "4/6", "empty controls": "0/18"}
{"CDR-H1": "GFTLNSYGIS", "CDR-H2": "VIYSDGRRTFYGDSVK", "CDR-H3": "GLASGTFDS", "Kd (apparent)": "not detected", "seen in": "0/6", "empty controls": "0/18"}
{"CDR-H1": "GFDLNSYGIS", "CDR-H2": "VIYSDGRRTVYGDSVK", "CDR-H3": "GQAAGTFDS", "Kd (apparent)": "4.0 nM", "seen in": "6/6", "empty controls": "0/18"}
{"CDR-H1": "HFELNSYGIS", "CDR-H2": "VIYSDGRRTFYGDSVK", "CDR-H3": "GRTAGTFDS", "Kd (apparent)": "not detected", "seen in": "0/6", "empty controls": "0/18"}
{"CDR-H1": "GFWLNSYGIS", "CDR-H2": "VIYADGRRTFYGDSVK", "CDR-H3": "GSAAGTFDS", "Kd (apparent)": "1.9 nM", "seen in": "3/6", "empty controls": "0/18"}
{"CDR-H1": "GFWLNEYGIS", "CDR-H2": "VIYSDGRRTFYHDSVK", "CDR-H3": "GRTAGTFDT", "Kd (apparent)": "5.7 nM", "seen in": "6/6", "empty controls": "0/18"}
{"CDR-H1": "GFDLNEYGIS", "CDR-H2": "VIYADGVRTAYTDSVK", "CDR-H3": "GENAGTFDM", "Kd (apparent)": "900 pM", "seen in": "6/6", "empty controls": "0/18"}
{"CDR-H1": "GFTLNEYGIS", "CDR-H2": "VIYSDGKRTQYNDSVK", "CDR-H3": "GRAAGTFDS", "Kd (apparent)": "92 nM", "seen in": "4/6", "empty controls": "0/18"}
{"CDR-H1": "GFDLEEYGIS", "CDR-H2": "VIYADGMRTFYSDSVK", "CDR-H3": "GEAAGTFDV", "Kd (apparent)": "1.3 nM", "seen in": "6/6", "empty controls": "0/18"}
{"CDR-H1": "GFTLNSYGIS", "CDR-H2": "VIYSDGRRTFYAWSVK", "CDR-H3": "GQLAGTFDS", "Kd (apparent)": "not detected", "seen in": "0/6", "empty controls": "0/18"}
{"CDR-H1": "GFSLDEYGIS", "CDR-H2": "VIYADGRRTMYCDNFK", "CDR-H3": "GELGCTFVI", "Kd (apparent)": "not detected", "seen in": "0/6", "empty controls": "0/18"}
{"CDR-H1": "GFQLNDYGIS", "CDR-H2": "VIYSDGRRTQYIDSVK", "CDR-H3": "GRAAGTFDS", "Kd (apparent)": "12 nM", "seen in": "6/6", "empty controls": "1/18"}

The 2 strongest on average among those seen in every replicate, once more:

CDR-H1,CDR-H2,CDR-H3,Kd (apparent),seen in,empty controls
GFDLNEYGIS,VIYADGMRTVYADSVK,GEVAGTFDQ,230 pM,6/6,1/18
GQDLNEYGIS,VIYADGLRTAYTNNVK,GNQSGFDEG,570 pM,6/6,0/18

Background: pairings of all heavy chain designs with three empty control strains gave a value in 1% of cases (median 120 nM, 5th percentile 7.0 nM). Values in that range, when seen in few replicates, are hard to tell from nonspecific mating. Also given: how often the same scFv was detected with the empty control strains. The authors' rule: three or more of the six replicates give a measured affinity, fewer mean a poor binder. The range of this assay differs from that of the first round, and the authors advise against merging the two.